AlphaSeq binding of Ab-14 light chain variants to a spike HR2 peptide

Data: MIT Lincoln Laboratory AlphaSeq set, Li et al. 2023, doi:10.1038/s41467-023-39022-2, as distributed in FLAb.

Target peptide (SARS-CoV-2 spike, HR2 region): PDVDLGDISGINAS

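Phage display of a naive human antibody library on the peptide gave the parent. The variants were designed computationally from a first round of random CDR variants and then made and measured. Their group label is 14L_GP_HC (GP: Gaussian process model; HC: hill climbing; a sequence that several methods proposed may carry one label only). The assay is AlphaSeq: two haploid yeast populations carry antibody and antigen on their surface. Pairs that bind mate more often; barcode pairs of the diploids are counted by sequencing. Each replicate has its own calibration line, from reference interactions of the BCL2 family. The assay was run in six technical replicates.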

Each scFv is VH, three GGGGS repeats, VL, as in the parent Ab-14, and differs from it in the CDRs of the light chain only.
VH: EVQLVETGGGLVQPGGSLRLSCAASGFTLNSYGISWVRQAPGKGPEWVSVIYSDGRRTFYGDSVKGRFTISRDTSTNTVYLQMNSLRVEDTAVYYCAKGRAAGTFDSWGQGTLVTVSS
VL: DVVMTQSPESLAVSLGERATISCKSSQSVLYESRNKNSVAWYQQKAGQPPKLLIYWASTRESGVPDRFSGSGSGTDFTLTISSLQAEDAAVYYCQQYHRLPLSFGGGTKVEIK

Variants are written as CDR1, CDR2 and CDR3 of the light chain (limits as in the source). Parent: KSSQSVLYESRNKNSVA, WASTRES, QQYHRLPLS. Affinities are written as log10 Kd with Kd in nM; a lower number is a better binder. Replicates are averaged; those with no signal do not enter the mean. "ND" marks a missing value. The strain was present, yet no cells mated with the target were sequenced in that replicate, which points to weak or no binding. Of ten entries with the parent sequence, four were seen in most replicates (averages 0.34 to 2.37), three in one and three in none, so single entries are noisy.

CDR-L1,CDR-L2,CDR-L3,log10 Kd (nM) by replicate,"log10 Kd (nM), mean",signal with controls
KFSQWVLYESRTKNSVA,NASTREQ,QQYHRLPLS,0.60 / 0.44 / 0.16 / 0.50 / 0.55 / 0.01,0.38,0/18
KCLQSVLYESRNKNSVA,HASTRED,QQYHRLPLS,0.27 / 0.02 / 0.09 / -0.12 / 0.21 / 0.21,0.11,1/18 (4.00)
KQSQSVGGESRNKNSVA,DASTRES,QQYHRLPLS,-0.13 / -0.03 / -0.15 / -0.24 / -0.29 / 0.00,-0.14,2/18 (3.00)
KWSQSVLFESRNKNSVA,DASFRES,QQYHRLPLS,0.01 / -0.09 / -0.20 / -0.29 / 0.03 / 0.22,-0.05,0/18
KLSQSVLYESRNKNSVA,DASTRES,YQYHRLPIS,ND / ND / ND / 1.19 / ND / 1.91,1.55,1/18 (2.28)
KISQSFLYESRNFNSVA,GASTRES,QQYHRLPLS,-0.06 / -0.38 / -0.33 / -0.26 / -0.37 / 0.05,-0.22,3/18 (2.77)
KAFQSWLYESRNKNSVA,GASTRES,QQYHRLPLI,0.16 / 0.20 / 0.09 / 0.01 / 0.09 / 0.23,0.13,2/18 (2.15)
KSSQSWGYESRNKNSVA,GASQRES,QQYHRLPLS,0.16 / 0.10 / -0.10 / 0.28 / 0.34 / 0.18,0.16,0/18
KQSQEVLYESRNKNSVA,DASTRES,QQYHRLPLS,0.02 / 0.02 / -0.04 / -0.30 / -0.35 / -0.17,-0.14,1/18 (3.07)
KQSQSVLYESVNKNSVA,DASTREM,QQYHRLPLS,-0.10 / -0.15 / -0.32 / -0.32 / -0.25 / -0.08,-0.20,0/18
HSSPSGLYESRNKNSVA,NASTRES,QQYHRLPFS,0.58 / 0.24 / 0.08 / 0.43 / 0.26 / 0.53,0.35,0/18
KVSISELLESRNKNSVA,EASTRES,QQYHRLPLS,0.00 / 0.19 / -0.16 / 0.01 / 0.15 / 0.28,0.08,1/18 (2.41)
KSSISGLYESGMKNSVA,EASTRES,QQYHRLPLS,-0.16 / -0.27 / -0.30 / -0.49 / -0.32 / -0.16,-0.28,2/18 (2.66)
KSSISYEYESMNKNSVA,NASTRES,QQYHRLPLS,0.34 / 0.31 / -0.05 / -0.06 / 0.14 / 0.40,0.18,1/18 (2.99)
HLSWVQLYESRNKNSVA,NASTRES,QQYHRLPLS,-0.04 / -0.31 / -0.21 / -0.43 / -0.06 / -0.05,-0.18,0/18
KQSDSVLQESRNKNSVA,DASTRES,QQYHRLPLS,0.16 / 0.07 / -0.02 / -0.27 / -0.27 / 0.07,-0.04,3/18 (3.60)
KISQSWLYEDRVKNSVA,GASTRES,QQYHRLPLS,0.39 / 0.29 / 0.43 / -0.01 / -0.02 / 0.08,0.19,0/18
HSSQSVPYESRNKNSVA,NASTREE,QDYHRLPLS,0.04 / -0.12 / -0.09 / -0.51 / -0.32 / -0.17,-0.20,0/18
FSSQSWLYESRNKNSVA,GASTRES,QQYHRLPLS,0.53 / 0.59 / 0.21 / 0.00 / -0.13 / 0.14,0.22,0/18
KFSQKVLYEHRCKNSVA,NASTRES,QQYHRLPLS,1.16 / 0.81 / 1.88 / 0.64 / 1.13 / 1.76,1.23,2/18 (1.67)
KFSQSVLYESRNYNSVA,NASTRES,QQYHRLPLS,-0.03 / 0.00 / -0.27 / -0.32 / -0.14 / 0.01,-0.13,1/18 (1.35)
RFSQSVLYESRNKNSVA,DASTRES,QQYHRLPLS,0.24 / 0.18 / -0.03 / -0.01 / -0.02 / 0.13,0.08,1/18 (2.31)
KVRQSTLYESRNKNSVA,NASTRES,QQYHMLPLS,-0.38 / -0.39 / -0.47 / -0.50 / -0.47 / -0.25,-0.41,2/18 (2.77)
KSSVSGLYESRMKNSVA,EASTRES,QQYHRLPLS,0.25 / 0.03 / 0.38 / 0.17 / 0.15 / 0.81,0.30,0/18
KFSQWVLYEDRTKNSVA,NASTRES,QQYHRLPLS,0.59 / 0.46 / 0.48 / 0.17 / 0.43 / 0.38,0.42,2/18 (2.63)
KVSQSVLYESRMKNSVA,DASTRSS,QQYHRLPLS,-0.13 / -0.26 / -0.23 / -0.30 / -0.35 / -0.13,-0.23,2/18 (3.25)
KSSQQYLYESRNKNSVA,GASTRES,QQYHRLPLS,0.19 / -0.05 / -0.14 / -0.33 / -0.18 / 0.06,-0.08,1/18 (1.87)
KSSQSWLYEDRVKNSVA,GASTRES,QQYHRLPLS,0.37 / 0.29 / 0.19 / 0.34 / 0.44 / 0.29,0.32,0/18
KSSISYLYESRNKNSVA,AASIRES,QQYHRLPLS,0.60 / 0.44 / 0.35 / 0.20 / 0.13 / 0.87,0.43,1/18 (2.91)
KFSQKVLYEHRMKNSVA,NASTRES,QQYHRLPLS,0.26 / 0.28 / 0.00 / 0.26 / 0.24 / 0.38,0.24,2/18 (2.87)
KSSGSFLYESRNFNSVA,GASTRES,QQYHRLPLS,0.13 / 0.09 / 0.18 / 0.02 / 0.09 / 0.12,0.10,0/18
KLRQSTQYESRNQNSVA,WASTRES,QQYHRLPLS,0.55 / 1.47 / 0.35 / 0.52 / 0.93 / 0.85,0.78,3/18 (2.14)
KSSMSFLYESRNKNSVA,GASTRES,QQYHRLPLS,0.15 / 0.10 / -0.02 / 0.04 / 0.01 / 0.25,0.09,6/18 (2.64)
KQSQEKLYESRNKNSVA,DASQRES,QQYHRLPLS,0.05 / -0.32 / -0.05 / -0.34 / -0.30 / -0.20,-0.19,0/18
KLRQSQLYESRNQNSVA,NASTRES,QQYHRLPLS,-0.04 / -0.09 / -0.34 / -0.40 / -0.38 / -0.30,-0.26,0/18
KLSISGLYESRMKNSVA,EASTRES,QQYHRLPLS,-0.49 / -0.88 / -0.71 / -0.90 / -1.02 / -0.67,-0.78,0/18
KMEQGVLYESRNKNSVA,EASVRES,QQYHRLPLS,-0.32 / -0.37 / -0.42 / -0.54 / -0.41 / -0.23,-0.38,0/18
KSSMSELYESRNKNSVA,GASTRES,QQYHRLPLS,0.01 / 0.25 / -0.07 / -0.03 / -0.11 / 0.27,0.05,0/18
KSSPSVLYESHNKNSVA,NASQRMS,QQYHRLPLS,0.06 / 0.05 / 0.01 / -0.21 / -0.16 / 0.11,-0.02,0/18
KSSQSEDYESRNKNSVA,DASTRES,QQYHRLPLS,0.30 / 0.26 / 0.36 / -0.18 / -0.12 / 0.34,0.16,0/18
KQSQSVLVESRNKNSVA,MASTRES,QQYHRLPLS,1.73 / 1.51 / 2.30 / 1.46 / 1.34 / 1.77,1.69,0/18
KSSWSELYESNNKNSVA,HASTRED,QQYHRLPLS,0.30 / 0.15 / 0.15 / 0.22 / 0.20 / 0.37,0.23,4/18 (2.58)
KLPQGELYESRNKNSVA,QASVRES,QQYHRLPLS,0.08 / -0.08 / -0.02 / -0.23 / 0.15 / 0.23,0.02,0/18
KSSWSDLMESRNKNSVA,DASTRSS,QQYHRLPLS,-0.47 / -0.43 / -0.58 / -0.52 / -0.49 / -0.47,-0.49,2/18 (3.13)
KLSQSWLYESRNKNSVA,GASFRES,QQYHRLPLS,0.41 / 1.42 / 0.50 / 0.43 / 0.98 / 0.52,0.71,0/18
KSSQSVEFESRNKNSVA,DASTRES,QQYHRLPLS,0.09 / 0.10 / 0.00 / 0.13 / 0.22 / 0.14,0.11,1/18 (2.30)
HSSPSVYYESRNKNSVA,NASTRES,QQYHRLPLS,0.18 / -0.02 / 0.05 / -0.12 / -0.04 / 0.11,0.03,1/18 (3.14)
KMSQSVLYESRDKNSVA,NASTRES,QWYHRLPLS,2.10 / 2.52 / 1.67 / 2.66 / 1.88 / 2.33,2.19,1/18 (1.86)

A sequence measured in both rounds can read differently, since the two assays cover different ranges. The authors averaged sequences with at least three values out of six and counted those with two or fewer as poor binders. Empty control strains, which show no peptide, gave a signal in 4% of pairings with all light chain designs; the median was 2.64 and 95% of these signals were weaker than 1.59. No background was subtracted. The control count says in how many pairings with the empty strains this scFv gave a signal, with their mean in brackets.